Values of other authors as cited in US20100130425A1, “USE OF TOLL-LIKE RECEPTOR LIGANDS IN TREATING EXCITOTOXIC INJURY, ISCHEMIA AND/OR HYPOXIA” (Oregon Health & Science University, priority 2005, published 2010).

Protein sequences, listed by entry. Tags and fused reporters are not part of them. Residues count along the entry.
UniProt Q9NYK1, 27-1049, species assumed: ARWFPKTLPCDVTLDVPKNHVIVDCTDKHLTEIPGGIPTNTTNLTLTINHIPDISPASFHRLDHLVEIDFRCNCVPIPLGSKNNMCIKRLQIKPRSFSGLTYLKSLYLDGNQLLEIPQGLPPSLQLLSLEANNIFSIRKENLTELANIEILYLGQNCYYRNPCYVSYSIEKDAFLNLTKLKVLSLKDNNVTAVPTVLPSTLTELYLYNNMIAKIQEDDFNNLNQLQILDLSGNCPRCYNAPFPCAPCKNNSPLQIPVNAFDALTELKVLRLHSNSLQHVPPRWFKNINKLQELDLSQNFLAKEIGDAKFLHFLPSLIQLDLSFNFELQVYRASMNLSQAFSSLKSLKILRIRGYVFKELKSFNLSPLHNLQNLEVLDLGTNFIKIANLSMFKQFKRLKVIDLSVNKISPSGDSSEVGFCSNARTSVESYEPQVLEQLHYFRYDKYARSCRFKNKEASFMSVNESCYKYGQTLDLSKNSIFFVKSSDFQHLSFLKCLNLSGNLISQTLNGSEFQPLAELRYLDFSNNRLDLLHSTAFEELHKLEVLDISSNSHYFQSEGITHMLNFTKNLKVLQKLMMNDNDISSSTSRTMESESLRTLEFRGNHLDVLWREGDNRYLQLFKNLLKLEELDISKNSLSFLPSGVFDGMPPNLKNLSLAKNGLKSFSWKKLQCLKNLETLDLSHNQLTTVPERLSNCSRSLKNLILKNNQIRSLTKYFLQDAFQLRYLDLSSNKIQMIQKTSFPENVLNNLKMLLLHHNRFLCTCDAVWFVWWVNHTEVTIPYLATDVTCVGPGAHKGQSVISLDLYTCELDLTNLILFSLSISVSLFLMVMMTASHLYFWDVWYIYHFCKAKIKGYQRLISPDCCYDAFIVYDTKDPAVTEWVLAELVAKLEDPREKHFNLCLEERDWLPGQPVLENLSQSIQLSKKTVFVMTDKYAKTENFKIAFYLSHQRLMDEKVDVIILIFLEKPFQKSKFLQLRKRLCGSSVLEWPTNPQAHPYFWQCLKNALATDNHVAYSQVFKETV
UniProt Q9NR97, 27-1041: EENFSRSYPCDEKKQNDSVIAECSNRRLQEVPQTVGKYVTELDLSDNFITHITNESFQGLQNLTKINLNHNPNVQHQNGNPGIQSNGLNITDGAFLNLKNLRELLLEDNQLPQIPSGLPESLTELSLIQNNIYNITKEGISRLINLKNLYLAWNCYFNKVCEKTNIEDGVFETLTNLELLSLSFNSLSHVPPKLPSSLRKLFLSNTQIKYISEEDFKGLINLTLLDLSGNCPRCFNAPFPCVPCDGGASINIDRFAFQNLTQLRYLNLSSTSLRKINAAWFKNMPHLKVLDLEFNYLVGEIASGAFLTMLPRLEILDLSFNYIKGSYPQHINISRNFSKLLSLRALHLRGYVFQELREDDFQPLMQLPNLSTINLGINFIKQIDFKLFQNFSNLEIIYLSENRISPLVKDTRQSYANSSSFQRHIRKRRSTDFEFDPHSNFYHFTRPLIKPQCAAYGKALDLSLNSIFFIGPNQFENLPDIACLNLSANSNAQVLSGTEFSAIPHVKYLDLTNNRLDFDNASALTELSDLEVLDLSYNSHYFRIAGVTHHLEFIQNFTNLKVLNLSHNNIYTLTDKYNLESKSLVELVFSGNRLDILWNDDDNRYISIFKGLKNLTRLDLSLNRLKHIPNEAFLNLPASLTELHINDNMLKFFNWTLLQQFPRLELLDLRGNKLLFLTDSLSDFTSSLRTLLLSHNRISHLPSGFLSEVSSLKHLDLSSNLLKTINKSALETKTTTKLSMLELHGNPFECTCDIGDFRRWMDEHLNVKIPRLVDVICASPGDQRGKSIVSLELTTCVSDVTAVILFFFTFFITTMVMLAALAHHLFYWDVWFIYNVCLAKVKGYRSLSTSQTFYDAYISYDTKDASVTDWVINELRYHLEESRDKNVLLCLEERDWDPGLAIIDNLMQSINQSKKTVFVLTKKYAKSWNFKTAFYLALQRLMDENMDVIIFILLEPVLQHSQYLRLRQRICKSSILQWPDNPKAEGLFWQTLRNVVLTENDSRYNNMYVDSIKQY

Columns and labels:
TLR7 = molecular target: T1, TLR7 (Homo sapiens, UniProt Q9NYK1); conditions: TLR7-transfected HEK293 cells; cited from earlier work
T1 construct: expressed in transfected cells; host or cells: HEK293

TLR8 = molecular target: T2, TLR8 (Homo sapiens, UniProt Q9NR97); conditions: TLR8-transfected HEK293 cells; cited from earlier work
T2 construct: expressed in transfected cells; host or cells: HEK293

CCOCc1nc2c(N)nc3ccccc3c2[nH]1 [CL097]
concentration inducing activation of NF-κB (TLR7): 0.4 μM and 0.1 μg/ml | concentration inducing activation of NF-κB (TLR8): 4 μM and 1 μg/ml

Where “and” joins values, the source holds several entries; their conditions need not be identical. Equal values may be shown once.
